# uPA surface inh: inhibitors of cell surface uPA generation. cell surface uPA generation assay, qHTS. Potency, µM (highest dose often 38.3 µM), without a hit: at the top dose activity change, negative = inhibition, most hits filed as inhibitors. actives 0.31% (n = 330,000). AID 540303; active means well fitted inhibition curve with a large enough effect; inconclusive means small, poorly fitted or top-dose-only effect; inactive means no such curve, though single readings can be large or run the other way; tested in mouse RAW 264.7 cells; further: potency means the concentration at half of the fitted maximal effect; on the % scale 0 is the no-effect control and ±100 the full control effect; nearly all actives have a fitted effect of over 55% in size
# miR-21 FLuc: miR-21 reporter, rising signal; HeLa miR-21 FLuc reporter, luciferase, 48 h; Potency, µM (titrated, usually from 38.3 µM), without a hit: top-dose reporter change, positive = more light; AID 2288; 340,000 tested, under 10 active; active = well fitted rising curve with a large enough effect; inconclusive = small, poorly fitted or top-dose-only effect; inactive = no such curve, though single readings can be large or run the other way;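 further: % of control where 0% means no effect; miR-21 action dims this reporter so a rising signal means less miR-21 action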
#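 Compounds were titrated across several concentrations (up to approximately 40 uM) and incubated 48 hours with HeLa miR-21-FLuc reporter cells (miR-21 target sequence downstream of FLuc, endogenous miR-21). Readout was firefly luciferase luminescence after lytic detection reagent.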
# TDP1 block: blocks human tyrosyl-DNA phosphodiesterase 1 | actives 0.28% (n = 350,000) | Q9NUW8 | AID 485290 | Potency, µM (highest dose often 130 µM), for inactives: at the highest dose activity change, negative = inhibition, hits mostly inhibitors | recombinant TDP1, AlphaScreen DNA substrate cleavage; further: potency means the concentration at half of the fitted maximal effect; on the % scale 0 is the no-effect control and ±100 the full control effect; nearly all actives have a fitted effect of over 40% in size
#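 Enzyme-compound mixtures sat 15 min at room temperature, followed by a 5 min reaction with 15 nM final substrate and 10 min with AlphaScreen beads. Recombinant human Tdp1 was used at 1 nM final.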
# DT40 TDP1 no CPT: qHTS for Inhibitors of human tyrosyl-DNA phosphodiesterase 1 (TDP1): qHTS in cells in absence of CPT; DT40 Tdp1-/- hTDP1 cells, no CPT, ATP luminescence, 48 h; Potency, µM (titrated, usually from 46.2 µM), inactives show top-dose activity change, negative = growth inhibition, usual class: inhibitors; actives 15% (n = 420,000); AID 686978, 2013; further: potency means the concentration at half of the fitted maximal effect; on the % scale 0 is the no-effect control and ±100 the full control effect; nearly all actives have a fitted effect of over 55% in size
#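 Luminescent ATP content (CellTiter-Glo) served as the growth readout. Knockout chicken DT40 cells expressing human TDP1 were exposed to compounds without camptothecin for a minimum 48 hr at 37 °C.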
# TDP1 cell CPT: growth inhibition of DT40 Tdp1-/-;hTDP1 cells with camptothecin (screen for TDP1 inhibitors); chicken DT40 Tdp1-/-;hTDP1 cells + 20 nM CPT, ATP luminescence, 48 h; Potency, µM (doses to about 46.2 µM), for inactives: top-dose activity change, negative = growth inhibition, usual class: inhibitors; actives 12% (n = 420,000); further: potency means the concentration at half of the fitted maximal effect; on the % scale 0 is the no-effect control and ±100 the full control effect; nearly all actives have a fitted effect of over 55% in size
#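 Cell growth measured by CellTiter-Glo luminescence after a minimum 48 h, 37 C compound exposure with 20 nM CPT in Tdp1-knockout DT40 cells stably expressing hTDP1, seeded 400/well; qHTS titration format.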
# Numbers without * were called inactive; ? = inconclusive; · = no result; [ ] = another dose, or the depositor's remark. In the library only some 16% were active in any assay of this set; here they are far more common. Unless noted, the call rests on the fitted dose curve; in most records, active means well fitted curve in the direction sought with a large enough effect; inconclusive means small, poorly fitted or top-dose-only effect, or another doubt; inactive means no such curve, though single readings can be large; an effect the other way counts as inactive or inconclusive.
no. | Molecule | uPA surface inh | miR-21 FLuc | TDP1 block
1 | CC1CCc2sc3ncnc(N4CCN(C)CC4)c3c2C1 (configuration not stated) | 0.8% | -15.2% | ·
2 | CCC1CCc2c(sc3ncnc(N4CCOCC4)c23)C1 (configuration not stated) | -5.6% | -10.6% | 6.9%
3 | Cc1nc(CC(=O)O)c(-c2ccccc2)s1 | 1.0% | -1.1% | 6.8%
4 | CCCSc1nc2cc(OC)c(OC)cc2c(=N)n1CCCN1CCOCC1 | -4.9% | -1.0% | 5.9%
5 | Cc1ccsc1C(=O)NC1CCCN(Cc2ccc(Cl)cc2)C1 (configuration not stated) | -3.9% | 8.0% | -0.5%
6 | CCCOc1ccc(C(=O)NC(=S)N2CCN(c3cc4c(cc3F)c(=O)c(C(=O)O)cn4CC)CC2)cc1 | -1.1% | -1.7% | 7.9%[0.0935 µM]
7 | CCn1cc(C(=O)O)c(=O)c2cc(F)c(N3CCN(C(=S)NC(=O)c4ccccc4Br)CC3)cc21 | -11.0% | 2.7% | 3.5%
8 | CCn1cc(C(=O)O)c(=O)c2cc(F)c(N3CCN(S(=O)(=O)c4ccc(NC(=O)OC)cc4)CC3)cc21 | 1.0% | 0.0% | ?
9 | CCn1cc(C(=O)O)c(=O)c2cc(F)c(N3CCN(C(=S)NC(=O)c4ccc(F)cc4)CC3)cc21 | -3.1% | -18.8% | ·
10 | CCn1cc(C(=O)O)c(=O)c2cc(F)c(N3CCN(C(=S)NC(=O)c4c(OC)cccc4OC)CC3)cc21 | 1.8% | -25.2% | -2.7%[0.0935 µM]
11 | COc1ccc(Cl)cc1NC(=O)CN(C)C(=O)C1CC1 | ? | · | 1.0%
12 | CCn1cc(C(=O)O)c(=O)c2cc(F)c(N3CCN(C(=S)Nc4ccccc4OC)CC3)cc21 | 0.4% | 2.0% | ·

no. | DT40 TDP1 no CPT | TDP1 cell CPT
1 | ? | ?
2 | 18.4µM* | ?
3 | -2.4% | 7.8%
4 | 23.1µM* | 16.4µM*
5 | 14.6µM* | ?
6 | 14.6µM* | 16.4µM*
7 | 20.6µM* | ?
8 | 18.4µM* | 18.4µM*
9 | ? | ?
10 | 25.9µM* | 18.4µM*
11 | 5.0% | -3.5%
12 | ? | -18.4%

# The list continues.
no. | Molecule | uPA surface inh | miR-21 FLuc | TDP1 block
13 | CCn1cc(C(=O)O)c(=O)c2cc(F)c(N/N=C/c3ccccc3[N+](=O)[O-])cc21 | 1.5% | -1.4% | -10.8%
14 | COc1ccc(NC(=O)c2ccc3c(c2)NC(=O)CS3)cc1S(=O)(=O)Nc1ccc(Br)cc1 | ? | ? | -1.2%
15 | C=C1C(=O)C2=CC1CCC(=O)C1(C)CCC(OC(C)=O)C(C)(C)C1CC2O (configuration not stated) | 8.1% | · | ·
16 | O=C(OCC(=O)N1CCCCC1)c1c[nH]c2ccccc12 | -2.3% | · | -0.9%
17 | O=C(OC1C[C@@H]2CC3C[C@H](C1)N2CC3=O)c1c[nH]c2ccccc12 (some centres not stated) | · | · | ·
18 | Cc1ccc([N+](=O)[O-])cc1S(=O)(=O)n1ccnc1C | 0.7% | 10.2% | 5.6%
19 | Cc1cn([C@H]2C[C@H](O)[C@@H](CCC(=O)NCCc3cnc[nH]3)O2)c(=O)[nH]c1=O | -5.9% | · | ·
20 | Cn1nc(C(=O)Nc2cccc(S(=O)(=O)N3CCCC3)c2)c2ccccc2c1=O | -3.3% | · | 2.1%
21 | CC(C)n1nc(C(=O)Nc2cccc(S(=O)(=O)N3CCCCC3)c2)c2ccccc2c1=O | -3.1% | · | -0.8%
22 | CC(C)n1nc(C(=O)Nc2cccc(S(=O)(=O)N3CCOCC3)c2)c2ccccc2c1=O | 13.6% | · | 1.6%
23 | N/C(=N\C(=S)Nc1ccccc1)c1ccccc1 | -6.1% | -67.2% | ·
24 | CC(C)c1ccc(CNc2cc(N3CCCC3)ccc2[N+](=O)[O-])cc1 | 0.0% | -10.9% | 4.0%

no. | DT40 TDP1 no CPT | TDP1 cell CPT
13 | 16.4µM* | 4.11µM*
14 | 29.1µM* | ?
15 | 2.06µM* | 2.06µM*
16 | -8.2% | -16.8%
17 | 21.1µM* | ?
18 | 18.4µM* | 20.6µM*
19 | 3.1% | -7.1%
20 | ? | ?
21 | -28.2% | 13µM*
22 | ? | 20.6µM*
23 | 16.4µM* | ?
24 | ? | 18.4µM*

# Exported in transposed form: part of the list above.
23. N/C(=N\C(=S)Nc1ccccc1)c1ccccc1
13. CCn1cc(C(=O)O)c(=O)c2cc(F)c(N/N=C/c3ccccc3[N+](=O)[O-])cc21
assay / entry | 23 | 13
uPA surface inh | -6.1% | 1.5%
miR-21 FLuc | -67.2% | -1.4%
TDP1 block | · | -10.8%
DT40 TDP1 no CPT | 16.4µM* | 16.4µM*
TDP1 cell CPT | ? | 4.11µM*

# Next records:
no. | Molecule | uPA surface inh | miR-21 FLuc | TDP1 block
25 | CS(=O)(=O)N1CCN(c2ccc([N+](=O)[O-])c(NCc3ccc(Cl)cc3)c2)CC1 | 2.8% | -11.4% | 0.0%
26 | O=[N+]([O-])c1cc(S(=O)(=O)N2CCCC2)ccc1NCCCN1CCOCC1 | -1.3% | -0.1% | 2.6%
27 | O=[N+]([O-])c1ccc(N2CCN(S(=O)(=O)c3ccc(Cl)c(Cl)c3)CC2)cc1NCCN1CCOCC1 | -2.6% | -10.4% | -5.3%
28 | CC(C)C(=O)Nc1nc2cc3c(cc2s1)OCCO3 | -6.6% | 1.2% | 3.9%
29 | O=C(Nc1nc2cc3c(cc2s1)OCO3)C1=COCCO1 | 2µM* | ? | -6.6%
30 | Cc1sc(NC(=O)C2=COCCO2)nc1-c1ccc(Br)cc1 | -3.0% | · | 6.0%
31 | Cc1sc(NC(=O)C2=COCCO2)nc1-c1ccc(F)cc1 | -0.7% | · | 1.5%
32 | CC(=O)Nc1nc2cc3c(cc2s1)OCO3 | -8.8% | -38.0% | 3.7%
33 | Nn1c(SCC(=O)N2CCCc3ccccc32)nnc1-c1ccccc1 | 2.0% | -4.0% | 1.1%
34 | CC(=O)NC(c1cccc(F)c1)c1nc(-c2cc3ccccc3o2)cs1 (configuration not stated) | · | · | ·
35 | CC(=O)NC(c1ccccc1)c1nc(-c2cc3ccccc3o2)cs1 (configuration not stated) | · | · | ·
36 | Nc1c(C(=O)c2ccc3c(c2)OCO3)sc(Nc2ccccc2F)c1S(=O)(=O)c1ccccc1 | · | -17.6% | 1.8%

no. | DT40 TDP1 no CPT | TDP1 cell CPT
25 | 18.4µM* | 25.9µM*
26 | -23.3% | 5.8%
27 | 8.2µM* | ?
28 | 14.6µM* | 20.6µM*
29 | 13µM* | 8.2µM*
30 | ? | ?
31 | 20.6µM* | 16.4µM*
32 | 14.6µM* | 23.1µM*
33 | -6.3% | 10.4%
34 | 20.6µM* | ?
35 | ? | 23.1µM*
36 | · | ·

# Continued, starting with the last two of the part before.
no. | Molecule | uPA surface inh | miR-21 FLuc | TDP1 block
35 | CC(=O)NC(c1ccccc1)c1nc(-c2cc3ccccc3o2)cs1 (configuration not stated) | · | · | ·
36 | Nc1c(C(=O)c2ccc3c(c2)OCO3)sc(Nc2ccccc2F)c1S(=O)(=O)c1ccccc1 | · | -17.6% | 1.8%
37 | CN1CCC(C2(O)c3ccccc3CCc3ccccc32)CC1 | -6.7% | -46.4% | -2.6%
38 | CN1CCC(C2(O)c3ccccc3CSc3sccc32)CC1 (configuration not stated) | 5.2% | -4.0% | 4.9%
39 | CCCCCCCCCCCCC(=O)N1CCCC[C@H]1CNC(=O)[C@@H](N)CCCCN | · | · | 13.2%[56.1 µM]
40 | O=C1N/C(=N/N=C/c2ccc(F)cc2)SC1c1ccccc1 (configuration not stated) | -1.2% | -9.0% | 2.6%
41 | Cc1cccc(C(=O)OCC(=O)N2CC(=O)Nc3ccccc32)c1C | -6.9% | · | -3.7%
42 | O=C1/C(=C/c2ccccc2F)SC(=S)N1CCC(=O)N1CCCCC1CCO (configuration not stated) | -10.9% | 13.1% | 8.1%
43 | O=C1/C(=C/c2ccco2)SC(=S)N1CCC(=O)N1CCCCC1CCO (configuration not stated) | -8.0% | -9.5% | 5.4%
44 | O=C1/C(=C/c2ccccc2F)SC(=S)N1CC(=O)N1CCCCC1c1cccnc1 (configuration not stated) | -4.3% | 4.7% | 7.6%

no. | DT40 TDP1 no CPT | TDP1 cell CPT
35 | ? | 23.1µM*
36 | · | ·
37 | ? | 18.4µM*
38 | -8.2% | -17.5%
39 | 21.1µM* | 13.3µM*
40 | ? | ?
41 | -21.0% | -4.5%
42 | 14.6µM* | ?
43 | 20.6µM* | -78.5%
44 | 3.66µM* | 3.66µM*
